Results as given in US20060135484A1, “Vesicant treatment with phenyl-thiophene type vitamin d receptor modulators” (published 2006).
pEC50, pIC50: −log10 of the molar value.

By UniProt entry, the sequences of proteins in these tests, tags left out. Residues count along the entry.
UniProt P11473, 127-423 limits assumed: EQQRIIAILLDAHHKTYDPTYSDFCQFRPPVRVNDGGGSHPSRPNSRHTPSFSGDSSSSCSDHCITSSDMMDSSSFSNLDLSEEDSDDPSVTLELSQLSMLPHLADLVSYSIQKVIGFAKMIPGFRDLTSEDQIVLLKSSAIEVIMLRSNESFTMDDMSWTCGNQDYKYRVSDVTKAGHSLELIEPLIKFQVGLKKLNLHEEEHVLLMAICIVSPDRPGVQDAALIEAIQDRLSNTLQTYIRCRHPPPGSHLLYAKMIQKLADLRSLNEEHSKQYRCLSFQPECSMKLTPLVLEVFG

Legend:
[1] = molecular target: RXR-VDR heterodimer (Gal4-RXR-DEF and VP16-VDR-LBD) (Homo sapiens, UniProt P11473); experiment: RXR-VDR heterodimerization assay (SaOS-2 cells); conditions: read-out: RXR-VDR (SaOS-2 cells) EC50
[2] = Mouse hypercalcemia assay
VDR (pGal4-VDR-LBD) = VDR (pGal4-VDR-LBD) (Homo sapiens, UniProt P11473); experiment: VDR CTF (Caco-2 cell co-transfection assay); conditions: read-out: VDR CTF (Caco-2 cells) EC50
rat osteocalcin promoter = experiment: OCN (osteocalcin) promoter assay; conditions: read-out: OCN Promoter EC50
KERtr cells = experiment: Keratinocyte proliferation assay; conditions: read-out: Kera. Prolif. IC50, BrdU incorporation, 72 hr
IL-10 = IL-10 induction assay; conditions: read-out: IL-10 IC50; TPA/PHA treated PBMCs, IL-10 in supernatant by immunoassay

Compound | pEC50 [1] | Mouse Hypercal [2] | pEC50 (VDR (pGal4-VDR-LBD)) | pEC50 (rat osteocalcin promoter) | pIC50 (KERtr cells) | pIC50 (IL-10)
CCC(CC)(c1ccc(OCC(=O)C(C)(C)C)c(C)c1)c1cc(C)c(CN(CC(=O)O)C(C)=O)s1 | 6.22 | >9000 µg/kg/day | 6.02 |  |  | 
1α,25-dihydroxyvitamin D3 |  | 0.06 µg/kg/day |  |  |  | 
(5-{1-ethyl-1-[4-(3-hydroxy-4,4-dimethyl-pentyl)-3-methyl-phenyl]-propyl}-3-methyl-thiophene-2-sulfonylaminoo)-acetic acid | 6.39 |  | 6.19 | 7.08 |  | 
CCC(CC)(c1ccc(CCC(O)C(C)(C)C)c(C)c1)c1cc(C)c(C(=O)NCC(=O)OC)s1 (centres unmarked) | 6.87 |  | 6.54 | 6.76 | 6.94 | 
CCC(CC)(c1ccc(OCC(=O)C(C)(C)C)c(C)c1)c1cc(C)c(S(=O)(=O)NC(C)=O)s1 | 6.05 | 3000 µg/kg/day |  |  |  | 
CCC(CC)(c1ccc(OCC(=O)C(C)(C)C)c(C)c1)c1cc(C)c(S(=O)(=O)NCC(=O)O)s1 | 6.32 | >3000 µg/kg/day |  |  |  | 
CCC(CC)(c1ccc(OCC(O)C(C)(C)C)c(C)c1)c1cc(C)c(-c2n[nH]c(=O)o2)s1 (centres unmarked) | 7.09 |  | 6.43 | 7.75 | 6.28 | 
CCCc1cc(C(CC)(CC)c2ccc(C(=O)O)s2)ccc1OCC(O)C(C)(C)C (centres unmarked) |  | 3000 µg/kg/day | 6.22 |  |  | 
CCC(CC)(c1ccc(OCC(O)C(C)(C)C)c(C(C)C)c1)c1ccc(C(=O)O)s1 (centres unmarked) |  | 1000 µg/kg/day |  |  |  | 
CCC(CC)(c1ccc(OCC(O)C(C)(C)C)c(C)c1)c1cc(C)c(-c2n[nH]c(=S)o2)s1 (single isomer, unassigned) | 7.09 |  | 6.19 | 7.60 |  | 
CCC(CC)(c1ccc(OCC(=O)C(C)(C)C)c(C)c1)c1cc(C)c(S(=O)(=O)NCCC(=O)O)s1 | 6.16 | 3000 µg/kg/day | 5.82 |  |  | 
CCC(CC)(c1ccc(OCC(=O)C(C)(C)C)c(C)c1)c1cc(C)c(S(=O)(=O)N[C@H](C)C(=O)O)s1 | 6.17 | >3000 µg/kg/day |  |  |  | 
CCc1cc(C(CC)(CC)c2ccc(C(=O)O)s2)ccc1OCC(O)C(C)(C)C (centres unmarked) |  | >1000 µg/kg/day |  |  |  | 
CCc1cc(C(CC)(CC)c2ccc(C(=O)O)s2)ccc1OCC(C)(O)C(C)(C)C (single isomer, unassigned) | 6.80 | 300 µg/kg/day | 6.45 |  |  | 
CCc1cc(C(CC)(CC)c2ccc(C(=O)N[C@@H](C)C(=O)O)s2)ccc1OCC(C)(O)C(C)(C)C (single isomer, unassigned) | 7.73 | <300 µg/kg/day | 6.95 |  |  | 
CCC(CC)(c1ccc(OCC(O)C(C)(C)C)c(C)c1)c1cc(C)c(S(=O)(=O)NCC(=O)OC)s1 (single isomer, unassigned) | 6.50 |  | 6.21 | 7.52 |  | 
CCc1cc(C(CC)(CC)c2ccc(C(=O)O)s2)ccc1OCC(O)C(C)(C)C (single isomer, unassigned) | 7.27 | 3000 µg/kg/day | 6.21 |  |  | 
CCC(CC)(c1ccc(OCC(O)C(C)(C)C)c(C)c1)c1cc(C)c(S(=O)(=O)NCC(=O)O)s1 (centres unmarked) | 6.39 | >3000 µg/kg/day |  |  |  | 
3′-[4-(2-hydroxy-3,3-dimethylbutoxy)-3-n-propylphenyl]-3′-[5-carboxy-thiophen-2-yl]pentane | 6.38 |  | 5.93 | 7.67 |  | 
CCC(CC)(c1ccc(OCC(O)CO)c(C)c1)c1ccc(OCC(O)C(C)(C)C)c(C)c1 (centres unmarked) |  | >=20 μg/Kg/d |  |  |  | 
CCC(CC)(c1ccc(OCC(=O)C(C)(C)C)c(C)c1)c1ccc(OCC(=O)C(C)(C)C)c(C)c1 | 6.96 | 1000 µg/kg/day |  |  |  | 
CCC(CC)(c1ccc(OCC(O)C(C)(C)C)c(C)c1)c1cc(C)c(S(=O)(=O)NCCC(=O)O)s1 (racemic) | 6.71 |  |  | 7.36 |  | 
CCC(CC)(c1ccc(CCC(O)C(C)(C)C)c(C)c1)c1cc(C)c(S(=O)(=O)NCC(=O)O)s1 (single isomer, unassigned) | 6.40 |  | 6.22 | 7.39 |  | 
(5-{1-ethyl-1-[4-(2-hydroxy-3,3-dimethyl-butoxy)-3-methyl-phenyl]-propyl}-3-methyl-thiophene-2-sulfonylamine)-acetic acid methyl ester | 6.37 |  | 6.05 | 6.84 |  | 
3′-[4-(2-hydroxy-3,3-dimethylbutoxy)-3-ethylphenyl)-3′-[5-carboxy-thiophen-2-yl]pentane | 6.42 |  |  | 7.53 |  | 
CCC(CC)(c1ccc(OCC(O)C(C)(C)C)c(C)c1)c1cc(C)c(S(=O)(=O)NCC(=O)OC)s1 (racemic) | 8.39 |  | 5.89 | 7.51 |  | 
CCC(CC)(c1ccc(OCC(O)C(C)(C)C)c(C)c1)c1cc(C)c(S(=O)(=O)NCC(=O)O)s1 (single isomer, unassigned) | 6.32 |  | 5.97 | 7.57 |  | 6.96
